Earlier results in patent publication US20090148430A1, “HUMAN OBESITY SUSCEPTIBILTY GENE ENCODING POTASSIUM ION CHANNELS AND USES THEREOF” (priority 2004, published 2009).

Sequences of proteins named here, by UniProt entry; tags and fusion partners are left off.
UniProt P22460, whole entry: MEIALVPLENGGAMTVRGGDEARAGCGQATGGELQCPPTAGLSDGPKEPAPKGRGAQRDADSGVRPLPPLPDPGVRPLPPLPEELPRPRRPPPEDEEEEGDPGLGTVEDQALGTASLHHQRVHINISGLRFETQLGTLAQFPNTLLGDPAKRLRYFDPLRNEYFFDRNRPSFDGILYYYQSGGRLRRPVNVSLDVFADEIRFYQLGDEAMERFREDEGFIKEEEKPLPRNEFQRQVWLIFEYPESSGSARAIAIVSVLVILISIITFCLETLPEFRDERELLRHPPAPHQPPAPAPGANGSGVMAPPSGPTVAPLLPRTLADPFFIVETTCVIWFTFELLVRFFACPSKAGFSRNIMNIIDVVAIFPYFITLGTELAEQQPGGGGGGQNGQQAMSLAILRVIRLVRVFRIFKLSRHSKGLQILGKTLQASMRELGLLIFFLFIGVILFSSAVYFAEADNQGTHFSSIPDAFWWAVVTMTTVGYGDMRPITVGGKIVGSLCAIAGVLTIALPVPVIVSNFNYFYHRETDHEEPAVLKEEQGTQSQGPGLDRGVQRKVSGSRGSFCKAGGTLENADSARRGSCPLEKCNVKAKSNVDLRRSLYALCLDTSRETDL

What was measured:
human Kv1.5 = molecular target: T1, human Kv1.5 (Homo sapiens, UniProt P22460); conditions: expressed in Xenopus oocytes; read-out: IC(50) block of human Kv1.5
T1 construct: host or cells: Xenopus oocytes

hKv1.5 = molecular target: T2, hKv1.5 (Homo sapiens, UniProt P22460); conditions: Chinese hamster ovary (CHO) cells; read-out: IC(50) decrease of steady-state hKv1.5 current
T2 construct: host or cells: Chinese hamster ovary (CHO) cells

In the case of COc1ccc(CC(=O)NCc2ccccc2-c2ccccc2C(=O)NCCc2cccnc2)cc1 [AVE0118], the IC50 (human Kv1.5) is listed as 6.2 µM and the IC50 (hKv1.5) is listed as 1100 nM.
